From patent US20240382481A1 (priority 2021, published 2024)

By UniProt entry, the sequences of proteins in these tests, tags left out.
UniProt Q96SB4, whole entry, species assumed: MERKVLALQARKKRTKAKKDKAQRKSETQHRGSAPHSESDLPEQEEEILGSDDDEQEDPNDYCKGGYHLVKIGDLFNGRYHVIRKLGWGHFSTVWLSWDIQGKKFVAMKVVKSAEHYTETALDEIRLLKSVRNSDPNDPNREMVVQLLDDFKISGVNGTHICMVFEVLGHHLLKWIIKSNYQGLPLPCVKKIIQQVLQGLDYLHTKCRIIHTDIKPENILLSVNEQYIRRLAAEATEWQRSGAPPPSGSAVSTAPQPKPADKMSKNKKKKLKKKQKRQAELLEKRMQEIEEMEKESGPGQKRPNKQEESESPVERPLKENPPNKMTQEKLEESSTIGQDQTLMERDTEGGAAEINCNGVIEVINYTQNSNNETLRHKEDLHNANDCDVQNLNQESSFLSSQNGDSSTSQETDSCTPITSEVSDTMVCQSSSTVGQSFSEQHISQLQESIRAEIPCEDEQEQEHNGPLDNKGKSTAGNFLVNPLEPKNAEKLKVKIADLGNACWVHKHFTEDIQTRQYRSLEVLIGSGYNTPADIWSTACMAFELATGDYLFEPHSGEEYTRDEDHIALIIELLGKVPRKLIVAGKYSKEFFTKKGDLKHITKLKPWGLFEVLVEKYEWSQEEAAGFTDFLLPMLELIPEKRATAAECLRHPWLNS
UniProt P78362, whole entry, species assumed: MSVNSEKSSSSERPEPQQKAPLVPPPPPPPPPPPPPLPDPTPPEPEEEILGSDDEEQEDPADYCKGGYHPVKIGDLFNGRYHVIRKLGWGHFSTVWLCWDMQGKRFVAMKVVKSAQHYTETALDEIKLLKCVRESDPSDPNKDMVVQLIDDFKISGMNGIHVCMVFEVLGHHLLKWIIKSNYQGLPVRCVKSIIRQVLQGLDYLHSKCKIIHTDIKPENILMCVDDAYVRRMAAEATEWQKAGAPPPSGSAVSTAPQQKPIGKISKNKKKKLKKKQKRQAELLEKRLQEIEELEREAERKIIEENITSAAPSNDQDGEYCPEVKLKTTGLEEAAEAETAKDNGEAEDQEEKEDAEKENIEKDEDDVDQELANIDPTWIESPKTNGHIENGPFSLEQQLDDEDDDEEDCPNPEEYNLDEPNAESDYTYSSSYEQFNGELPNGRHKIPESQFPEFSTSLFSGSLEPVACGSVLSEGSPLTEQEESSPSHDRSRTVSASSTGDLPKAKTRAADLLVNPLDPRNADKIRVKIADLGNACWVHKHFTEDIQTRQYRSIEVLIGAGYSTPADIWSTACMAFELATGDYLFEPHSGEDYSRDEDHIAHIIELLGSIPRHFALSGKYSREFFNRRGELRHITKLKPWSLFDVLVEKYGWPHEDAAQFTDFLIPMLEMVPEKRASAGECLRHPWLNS

Tests used:
SRPK1 = SRPK1 (Homo sapiens, UniProt Q96SB4); experiment: biochemical
SRPK2 = SRPK2 (Homo sapiens, UniProt P78362); experiment: biochemical

IC50 (SRPK1): < 50 nM | IC50 (SRPK2): 50 to 500 nM
Compound: CN(c1ncccc1CNc1ccnc(-c2nc3c(F)c(Cl)ccc3[nH]2)n1)S(C)(=O)=O [Compound B10]
